# Target: TNKS2 (Homo sapiens (Human), UniProt Q9H2K2)
# Protein sequences, listed by entry. Tags and fused reporters are not part of them. Lines headed by an entry give the natural chain unless they say otherwise; changes in a name come on top.
# UniProt Q9H2K2: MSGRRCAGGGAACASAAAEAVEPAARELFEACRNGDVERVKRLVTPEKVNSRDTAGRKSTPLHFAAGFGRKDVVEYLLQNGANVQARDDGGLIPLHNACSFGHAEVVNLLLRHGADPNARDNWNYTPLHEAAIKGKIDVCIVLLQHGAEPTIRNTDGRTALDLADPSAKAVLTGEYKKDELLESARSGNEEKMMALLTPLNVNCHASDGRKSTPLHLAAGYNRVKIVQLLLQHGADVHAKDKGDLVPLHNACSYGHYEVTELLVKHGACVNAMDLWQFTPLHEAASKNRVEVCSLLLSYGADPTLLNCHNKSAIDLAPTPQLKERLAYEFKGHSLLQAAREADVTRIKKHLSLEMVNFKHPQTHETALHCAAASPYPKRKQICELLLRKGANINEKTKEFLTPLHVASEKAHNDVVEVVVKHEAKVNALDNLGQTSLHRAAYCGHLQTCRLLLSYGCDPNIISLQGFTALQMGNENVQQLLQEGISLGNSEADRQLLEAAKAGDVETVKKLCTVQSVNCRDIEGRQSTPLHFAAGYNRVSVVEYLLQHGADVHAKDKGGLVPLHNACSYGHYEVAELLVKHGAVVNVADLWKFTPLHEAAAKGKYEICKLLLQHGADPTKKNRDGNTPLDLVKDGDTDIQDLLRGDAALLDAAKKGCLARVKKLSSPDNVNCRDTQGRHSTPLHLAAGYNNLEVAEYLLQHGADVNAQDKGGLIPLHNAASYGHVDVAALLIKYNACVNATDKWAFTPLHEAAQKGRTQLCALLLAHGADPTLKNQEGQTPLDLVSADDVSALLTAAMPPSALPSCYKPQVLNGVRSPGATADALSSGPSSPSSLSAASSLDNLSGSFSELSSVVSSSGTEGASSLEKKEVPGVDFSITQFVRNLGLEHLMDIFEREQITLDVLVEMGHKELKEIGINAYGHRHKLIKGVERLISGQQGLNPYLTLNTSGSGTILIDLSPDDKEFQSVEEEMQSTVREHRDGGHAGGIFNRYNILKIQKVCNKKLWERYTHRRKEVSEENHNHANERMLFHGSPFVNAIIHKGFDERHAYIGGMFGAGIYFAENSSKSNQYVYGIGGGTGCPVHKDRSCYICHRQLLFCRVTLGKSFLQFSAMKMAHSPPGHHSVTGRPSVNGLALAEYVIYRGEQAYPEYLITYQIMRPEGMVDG
# Experiment: Biochemical IC50 TNKS2
# Text: XLfit (idbs) was used to determine the IC50-values in inhibition experiments. The following formula was chosen to fit the data points (Langmuir Binding Isotherm): fit=((A+(B*x))+(((C−B)*(1−exp((−1*D)*x)))/D)), res=(y−fit).
row,Structure (SMILES),IC50
1,"CCOc1ccc(-c2nnc([C@H]3C[C@H](NC(=O)c4cc[n+]([O-])c5cc(F)cnc45)C3)n2-c2ccccc2F)nc1 [Example 29, 4-((trans-3-(5-(5-ethoxypyridin-2-yl)-4-(2-fluorophenyl)-4H-1,2,4-triazol-3-yl)cyclobutyl)carbamoyl)-7-fluoro-1,5-naphthyridine 1-oxide]",1.8 nM
2,"CCOc1ccc(-c2nnc([C@H]3C[C@H](NC(=O)c4cccc5c4nc(C)c(C)[n+]5[O-])C3)n2-c2ccccc2F)nc1 [Example 24, 5-((trans-3-(5-(5-ethoxypyridin-2-yl)-4-(2-fluorophenyl)-4H-1,2,4-triazol-3-yl)cyclobutyl)carbamoyl)-2,3-dimethylquinoxaline 1-oxide]",1.8 nM

# From US20230322721A1 (OSLO UNIVERSITETSSYKEHUS HF, priority 2020, published 2023)
